Compound activity (PubChem BioAssay)
uPA surface inh: inhibitors of cell surface uPA generation; 0.31% of 330,000 active; cell surface uPA generation assay, qHTS; Potency, µM (doses to about 38.3 µM), for inactives: at the top dose activity change, negative = inhibition, usual class: inhibitors; active = well fitted inhibition curve with a large enough effect; inconclusive = small, poorly fitted or top-dose-only effect; inactive = no such curve, though single readings can be large or run the other way; tested in mouse RAW 264.7 cells; note: potency is the fitted concentration of half-maximal effect; % is set by controls: 0 for no effect and ±100 for the full control effect; nearly all actives have a fitted effect of over 55% in size
TDP1 cell noCPT: qHTS for Inhibitors of human tyrosyl-DNA phosphodiesterase 1 (TDP1): qHTS in cells in absence of CPT; 15% of 420,000 active; Potency, µM (top dose mostly 46.2 µM), without a hit: top-dose activity change, negative = growth inhibition, usual class: inhibitors; AID 686978, 2013; DT40 Tdp1-/- hTDP1 cells, no CPT, ATP luminescence, 48 h; note: potency is the fitted concentration of half-maximal effect; % is set by controls: 0 for no effect and ±100 for the full control effect; nearly all actives have a fitted effect of over 55% in size
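Stably hTDP1-transfected Tdp1-null chicken DT40 cells were treated with library compounds minus camptothecin and grown for at least 48 hr at 37 °C, after which cellular ATP was quantified by luminescence.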
TDP1 block: TDP1 (human) enzyme inhibition; recombinant TDP1, AlphaScreen DNA substrate cleavage; Potency, µM (highest dose often 130 µM), for inactives: at the top dose activity change, negative = inhibition, actives largely listed as inhibitors; AID 485290; 0.28% of 350,000 active; note: potency is the fitted concentration of half-maximal effect; % is set by controls: 0 for no effect and ±100 for the full control effect; nearly all actives have a fitted effect of over 40% in size
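Enzyme-compound mixtures sat 15 min at room temperature, followed by a 5 min reaction with 15 nM final substrate and 10 min with AlphaScreen beads. Recombinant human Tdp1 was used at 1 nM final.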
DT40 TDP1 CPT: DT40-hTDP1 cell growth loss with CPT; 12% of 420,000 active; Potency, µM (top dose mostly 46.2 µM), inactives show at the top dose activity change, negative = growth inhibition, actives largely listed as inhibitors; AID 686979; chicken DT40 Tdp1-/-;hTDP1 cells + 20 nM CPT, ATP luminescence, 48 h; note: potency is the fitted concentration of half-maximal effect; % is set by controls: 0 for no effect and ±100 for the full control effect; nearly all actives have a fitted effect of over 55% in size
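Cell growth measured by CellTiter-Glo luminescence after a minimum 48 h, 37 C compound exposure with 20 nM CPT in Tdp1-knockout DT40 cells stably expressing hTDP1, seeded 400/well; qHTS titration format.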
miR-21 FLuc: raises the signal of a miR-21 reporter | AID 2288 | 340,000 tested, under 10 active | Potency, µM (series often up to 38.3 µM), without a hit: at the highest dose reporter change, positive = more light | HeLa miR-21 FLuc reporter, luciferase, 48 h; active = well fitted rising curve with a large enough effect; inconclusive = small, poorly fitted or top-dose-only effect; inactive = no such curve, though single readings can be large or run the other way;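 further: % of control where 0% means no effect; miR-21 action dims this reporter so a rising signal means less miR-21 action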
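Using DMEM plus 10% FBS, HeLa miR-21-FLuc cells are incubated with test compounds (final up to about 40uM) for 48 hours; firefly luciferase signal is then imaged following reagent-mediated lysis.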
An asterisk follows results filed as active; ? = inconclusive; . = not tested or not shown; [ ] = remark or other dose. The list is not random: actives were taken first. Their share in the collection is about 16%. Unless noted, calls come from the whole dose curve; as a rule, active = well fitted curve in the direction sought with a large enough effect; inconclusive = small, poorly fitted or top-dose-only effect, or another doubt; inactive = no such curve, though single readings can be large; an effect the other way counts as inactive or inconclusive.

| item | molecule | uPA surface inh | TDP1 cell noCPT | TDP1 block |
| --- | --- | --- | --- | --- |
| 1 | CCc1nc2cc(C(=O)NC3CCS(=O)(=O)C3)cc(NC(=O)c3ccccc3OC)c2n1C (stereo not given) | . | -8% | . |
| 2 | Cc1ccccc1S(=O)(=O)NC(=O)C1(C)CCN1C(=O)Cc1ccc(C(C)(C)C)cc1 (stereo not given) | . | 17% | . |
| 3 | O=C(Nc1ccc(C2CC2(Cl)Cl)cc1)c1ccccc1Br (stereo not given) | 4% | 13µM* | 0% |
| 4 | COc1ccc(C(=O)COc2ccccc2C(=O)Nc2ccccc2)cc1 | 3% | 18µM* | 0% |
| 5 | Cc1cccc(NC(=O)NCc2ccc3c(c2)OCO3)c1C | 2% | -15% | -11% |
| 6 | CCN(C1CCCCC1)S(=O)(=O)CCNC(=O)c1ccc2c(c1)OCO2 | 1% | ? | -1% |
| 7 | Nc1nc(CN2CCN(Cc3ccccc3)CC2)nc(Nc2ccc3c(c2)OCCO3)n1 | 1% | -26% | 6% |
| 8 | Cc1ccccc1Nc1nc(N)nc(CN(C)c2ccccc2)n1 | -9% | ? | 6% |

| item | DT40 TDP1 CPT | miR-21 FLuc |
| --- | --- | --- |
| 1 | -3% | . |
| 2 | -7% | . |
| 3 | 18µM* | -46% |
| 4 | 12µM* | 1% |
| 5 | 0% | 7% |
| 6 | 23µM* | . |
| 7 | -29% | 1% |
| 8 | -19% | -47% |

(continued)
| item | molecule | uPA surface inh | TDP1 cell noCPT | TDP1 block |
| --- | --- | --- | --- | --- |
| 9 | Cc1ccccc1Nc1nc(N)nc(CCl)n1 | -9% | 23µM* | 7% |
| 10 | Nc1nc(CCl)nc(Nc2ccc3ccccc3c2)n1 | ? | 15µM* | 4% |
| 11 | Cc1cccc(C)c1NC(=O)CCS(=O)(=O)c1ccc2c(c1)CC(C)N2C(=O)C1CC1 (stereo not given) | . | ? | 3% |
| 12 | Cc1ccc(CNC(=O)CCS(=O)(=O)c2ccc3c(c2)CC(C)N3C(=O)C2CC2)cc1 (stereo not given) | ? | 5.8µM* | 6% |
| 13 | CC1Cc2cc(S(=O)(=O)CCC(=O)Nc3ccccc3F)ccc2N1C(=O)C1CC1 (stereo not given) | . | ? | 3% |
| 14 | CC1Cc2cc(S(=O)(=O)CCC(=O)NCc3ccccc3Cl)ccc2N1C(=O)C1CC1 (stereo not given) | . | 7.3µM* | 0% |
| 15 | CC1Cc2cc(S(=O)(=O)CCC(=O)Nc3ccc(F)cc3Cl)ccc2N1C(=O)C1CC1 (stereo not given) | . | 13µM* | 6% |
| 16 | COc1ccc(-c2nc(CNS(=O)(=O)c3cc(OC)ccc3OC)cs2)cc1 | -13% | -27% | 2% |

| item | DT40 TDP1 CPT | miR-21 FLuc |
| --- | --- | --- |
| 9 | 21µM* | ? |
| 10 | 12µM* | 30% |
| 11 | ? | -1% |
| 12 | 7.3µM* | 0% |
| 13 | ? | 7% |
| 14 | 7.3µM* | 20% |
| 15 | 23µM* | 7% |
| 16 | ? | 0% |

Continuation:
| item | molecule | uPA surface inh | TDP1 cell noCPT | TDP1 block |
| --- | --- | --- | --- | --- |
| 17 | COc1ccc(N2CCN(S(C)(=O)=O)CC2)cc1 | 2% | 3% | 1% |
| 18 | O=[N+]([O-])c1cc2c(c(CSc3nnnn3-c3ccc(O)cc3)c1)OCOC2 | -5% | 23µM* | 8% |
| 19 | Nn1c(SCc2cc([N+](=O)[O-])cc3c2OCOC3)nnc1-c1cccnc1 | -3% | 0% | 3% |
| 20 | O=Cc1cc2ccccc2nc1SCCCF | -8% | 4.6µM* | 3% |
| 21 | CCCOc1ccc(/C=N/Nc2ccccc2[N+](=O)[O-])c(O)c1 | 0% | 12µM* | 8% |
| 22 | CCNC(=S)N/N=C/c1ccccc1[N+](=O)[O-] | 2% | ? | 9% |
| 23 | CCCOc1ccc(/C=N/NC(=S)Nc2ccccc2[N+](=O)[O-])c(O)c1 | -11% | 5.2µM* | 5% |
| 24 | O=C(Nc1nnc([C@H]2C[C@H](O)[C@@H](CO)O2)s1)NC1CCCCC1 | . | 7% | . |

| item | DT40 TDP1 CPT | miR-21 FLuc |
| --- | --- | --- |
| 17 | 0% | -1% |
| 18 | 21µM* | -14% |
| 19 | 1% | 0% |
| 20 | ? | 14% |
| 21 | 10µM* | -84% |
| 22 | 23µM* | -4% |
| 23 | 5.8µM* | 1% |
| 24 | 14% | . |

5 compounds drawn at random from those above, as already listed:
| item | molecule | uPA surface inh | TDP1 cell noCPT | TDP1 block |
| --- | --- | --- | --- | --- |
| 23 | CCCOc1ccc(/C=N/NC(=S)Nc2ccccc2[N+](=O)[O-])c(O)c1 | -11% | 5.2µM* | 5% |
| 20 | O=Cc1cc2ccccc2nc1SCCCF | -8% | 4.6µM* | 3% |
| 18 | O=[N+]([O-])c1cc2c(c(CSc3nnnn3-c3ccc(O)cc3)c1)OCOC2 | -5% | 23µM* | 8% |
| 24 | O=C(Nc1nnc([C@H]2C[C@H](O)[C@@H](CO)O2)s1)NC1CCCCC1 | . | 7% | . |
| 17 | COc1ccc(N2CCN(S(C)(=O)=O)CC2)cc1 | 2% | 3% | 1% |

| item | DT40 TDP1 CPT | miR-21 FLuc |
| --- | --- | --- |
| 23 | 5.8µM* | 1% |
| 20 | ? | 14% |
| 18 | 21µM* | -14% |
| 24 | 14% | . |
| 17 | 0% | -1% |

Later entries.
| item | molecule | uPA surface inh | TDP1 cell noCPT | TDP1 block |
| --- | --- | --- | --- | --- |
| 25 | CS(=O)(=O)Cc1nc2ccccc2n1CC(=O)Nc1cccc(S(=O)(=O)N2CCCC2)c1 | 12% | -13% | . |
| 26 | O=C(NC1CC1)c1sc2cc(F)ccc2c1Cl | -27% | ? | 0% |
| 27 | O=C(NC1CC1)c1sc2cc(Cl)ccc2c1Cl | -5% | 12µM* | . |
| 28 | Cc1ccccc1-n1c(C)nnc1SC(C)C(=O)NCc1ccco1 (stereo not given) | . | -3% | . |
| 29 | COc1cc(C(=O)OC2CCOC2=O)cc(Cl)c1OC (stereo not given) | 1% | -8% | 3% |
| 30 | CCn1c2ccccc2c2cc(NC(=O)COc3cc(C)ccc3C)ccc21 | . | 9.2µM* | 0%[12.3 µM] |
| 31 | Cc1ccc(C)c(OCC(=O)Nc2cc(NC(=O)COc3cc(C)ccc3C)cc(C(=O)O)c2)c1 | 5% | ? | 50µM* |
| 32 | Cc1ccc(C)c(OCC(=O)Nc2nonc2NC(=O)COc2cc(C)ccc2C)c1 | 8% | ? | 3% |

| item | DT40 TDP1 CPT | miR-21 FLuc |
| --- | --- | --- |
| 25 | -18% | . |
| 26 | -10% | . |
| 27 | ? | . |
| 28 | -21% | . |
| 29 | 1% | 0% |
| 30 | ? | -8% |
| 31 | 1% | -31% |
| 32 | ? | -7% |

(next part)
| item | molecule | uPA surface inh | TDP1 cell noCPT | TDP1 block |
| --- | --- | --- | --- | --- |
| 33 | CCn1c2ccccc2c2cc(NC(=O)COC(=O)c3cc(OC)c(OC)cc3OC)ccc21 | -4% | 21µM* | 4% |
| 34 | CCOC(=O)c1ccc(NC(=O)CSc2nnc(-c3ccncc3)n2C)cc1 | -2% | -20% | 7% |
| 35 | CC(=O)c1ccccc1OC(=O)c1ccc(-c2ccccc2)cc1 | -29% | -24% | . |
| 36 | Cc1ccc(CCP(=O)(O)CN2CCOCC2)cn1 | 15% | -8% | 6% |
| 37 | C=CCNC(=O)C1CCCN(S(=O)(=O)c2ccc(-n3cnnn3)cc2)C1 (stereo not given) | 0% | -2% | . |
| 38 | OCc1ccc2c(c1)c(-c1ccc3c(c1)OCCO3)c(-c1ccccc1)n2-c1ccccc1 | ? | 23µM* | 6% |
| 39 | O=C(/C=C/c1cn(-c2ccccc2)nc1-c1ccc2c(c1)OCCO2)NCCO | 3% | -14% | 5% |
| 40 | CCOc1ccc(C(C)NC(=O)C2CCN(S(=O)(=O)c3ccc(OC)cc3)CC2)cc1OCC (stereo not given) | 0% | 7% | . |

| item | DT40 TDP1 CPT | miR-21 FLuc |
| --- | --- | --- |
| 33 | 21µM* | -4% |
| 34 | 3% | -8% |
| 35 | 4% | . |
| 36 | 3% | -13% |
| 37 | 31% | -1% |
| 38 | 18µM* | . |
| 39 | -3% | -2% |
| 40 | 14% | . |

Other entries.
| item | molecule | uPA surface inh | TDP1 cell noCPT | TDP1 block |
| --- | --- | --- | --- | --- |
| 41 | COc1ccc(C(NC(=O)C2CCN(CCOc3ccc(Cl)cc3Cl)CC2)c2cccs2)cc1 (stereo not given) | . | 16µM* | . |
| 42 | COc1ccc(C(C)NC(=O)C2CCN(CCOc3ccc(Cl)cc3Cl)CC2)cc1OC (stereo not given) | . | 23µM* | . |
| 43 | C=CCn1c(SCC(=O)NCC2CCCO2)nc2scc(-c3ccco3)c2c1=O (stereo not given) | 1% | ? | 50µM* |
| 44 | O=C(Nc1ccccc1N1CCN(c2ccccc2)CC1)C12CC3CC(CC(C3)C1)C2 | 1% | 21µM* | 7% |
| 45 | COc1ccccc1N1CCN(S(=O)(=O)CCNC(=O)C23CC4CC(CC(C4)C2)C3)CC1 | -25% | ? | 5% |
| 46 | O=C(NCCS(=O)(=O)N1CCN(c2ccccc2)CC1)C12CC3CC(CC(C3)C1)C2 | . | 21µM* | . |

| item | DT40 TDP1 CPT | miR-21 FLuc |
| --- | --- | --- |
| 41 | ? | . |
| 42 | 23µM* | . |
| 43 | ? | 0% |
| 44 | ? | -4% |
| 45 | ? | 23% |
| 46 | 26µM* | . |
